Earlier results in patent US20240224991A9, “NANO-[…] N[…] PESTICIDE/FUNGICIDE CARRIERS FOR AGRICULTURE AND AQUACULTURE” (priority 2022, published 2024).

Conditions: cited from earlier work

In the case of Emamectin benzoate [EMB], the water solubility is given as roughly 24 µg/mL.
